How the values were obtained:
[1] = target: T1, Arachidonate 5-lipoxygenase-activating protein (Homo sapiens, UniProt P20292); test: Inhibition of FLAP in human whole blood assessed as reduction in LTB4 level preincubated for 15 mins followed by calcium ionophore A23187 addition and measured after 30 min; type: tissue-based
[2] = target: T1, Arachidonate 5-lipoxygenase-activating protein; test: Inhibition of N-terminal His6-tagged human FLAP expressed in Sf9 insect cells assessed as inhibition constant incubated for 2 hr by HTRF assay
[3] = target: T1, Arachidonate 5-lipoxygenase-activating protein; test: Inhibition of FLAP in human whole blood assessed as reduction of LTB4 formation preincubated with enzyme for 15 mins followed by calcium ionophore A23187 addition and measured after 30 mins; type: tissue-based

Amino acid sequences for entries named in this document (tags omitted). A change or cut given only in a name is not applied to a line headed by its entry.
UniProt P20292: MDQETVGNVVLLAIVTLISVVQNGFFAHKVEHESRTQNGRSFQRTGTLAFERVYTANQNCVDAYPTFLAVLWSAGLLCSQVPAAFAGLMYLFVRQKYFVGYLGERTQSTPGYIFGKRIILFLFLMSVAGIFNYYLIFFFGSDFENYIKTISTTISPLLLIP

IC50 [1] | Ki [2] | IC50 [3] | SMILES
0.038 µM |  |  | C[C@H](CO)NS(=O)(=O)c1ccccc1-c1ccc(-c2cnc(N)cn2)c(F)c1
 | 0.0011 µM | 0.029 µM | Cc1cnc(COc2ccc3nc([C@H]4CCCC[C@H]4C(=O)O)n(Cc4ccc(N5CCC(C)CC5)cc4F)c3c2)c(F)c1
